The source of these data is PubChem BioAssay AID588407 (The Scripps Research Institute Molecular Screening Center, 2011).

The chains behind the UniProt entries cited, without tags or fusion partners.
UniProt P35372, whole entry, looked up: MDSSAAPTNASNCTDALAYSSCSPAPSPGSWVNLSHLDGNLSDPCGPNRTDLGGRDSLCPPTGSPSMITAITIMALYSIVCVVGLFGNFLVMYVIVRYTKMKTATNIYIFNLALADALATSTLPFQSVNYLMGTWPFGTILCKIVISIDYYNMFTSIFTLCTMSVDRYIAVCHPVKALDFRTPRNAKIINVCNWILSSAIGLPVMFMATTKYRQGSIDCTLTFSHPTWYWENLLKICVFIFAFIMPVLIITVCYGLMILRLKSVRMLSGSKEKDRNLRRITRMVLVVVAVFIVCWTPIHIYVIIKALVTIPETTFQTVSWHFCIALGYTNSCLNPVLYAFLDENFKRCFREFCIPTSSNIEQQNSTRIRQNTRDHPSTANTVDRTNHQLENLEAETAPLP
UniProt P41143, whole entry, looked up: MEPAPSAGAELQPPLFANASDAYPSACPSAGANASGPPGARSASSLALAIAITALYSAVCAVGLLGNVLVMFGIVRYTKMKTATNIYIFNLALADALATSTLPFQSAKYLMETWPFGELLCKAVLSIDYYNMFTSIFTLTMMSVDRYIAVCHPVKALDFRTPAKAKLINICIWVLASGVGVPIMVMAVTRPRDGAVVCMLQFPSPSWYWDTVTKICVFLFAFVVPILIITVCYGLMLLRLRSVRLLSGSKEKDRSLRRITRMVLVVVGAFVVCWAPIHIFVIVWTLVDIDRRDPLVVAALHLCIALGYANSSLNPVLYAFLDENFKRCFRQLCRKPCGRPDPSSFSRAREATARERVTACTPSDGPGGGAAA

This assay deals with Mu-type opioid receptor (Homo sapiens) + Delta-type opioid receptor (Homo sapiens) (UniProt P35372+P41143). Description: agonists of MOR-DOR heterodimerization, dose response, cell-based, luminescence (AID 588407).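 Further: potency of agonists raising the heterodimer signal.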 As to conditions: cells.

The structures appear in SMILES notation. Activity calls are given as the source filed them. How the calls were made is not given here.

Consider `CCn1c(N)[n+](CC(=O)Nc2ccc(SC(F)F)cc2)c2ccccc21`, for which the EC50 is 7.09 µM.
As to `Cc1ccc(C)c(CN2CCC(n3nnc4cc(F)ccc43)CC2)c1`, the EC50 result is “inactive”.
With `CCN(CC)c1ccc(CNc2nc3ccccc3n2CCN2CCCCC2)cc1` the entry was “inactive”.
